Reference: patent US9115061B2, “Naphthalene-based inhibitors of anti-apoptotic proteins” (BURNHAM INSTITUTE FOR MEDICAL RESEARCH, priority 2007, dated 2015)

Sequences of proteins named here, by UniProt entry; tags and fusion partners are left off. A change or cut given only in a name is not applied to a line headed by its entry. Residues count along the entry.
UniProt Q07817, whole entry: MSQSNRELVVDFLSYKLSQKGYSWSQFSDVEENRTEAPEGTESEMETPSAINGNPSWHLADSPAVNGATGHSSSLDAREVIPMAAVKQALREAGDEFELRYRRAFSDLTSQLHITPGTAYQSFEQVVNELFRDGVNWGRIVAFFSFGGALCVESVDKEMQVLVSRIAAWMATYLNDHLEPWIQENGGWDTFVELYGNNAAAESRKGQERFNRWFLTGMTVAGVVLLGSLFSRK
UniProt Q07817, 1-209: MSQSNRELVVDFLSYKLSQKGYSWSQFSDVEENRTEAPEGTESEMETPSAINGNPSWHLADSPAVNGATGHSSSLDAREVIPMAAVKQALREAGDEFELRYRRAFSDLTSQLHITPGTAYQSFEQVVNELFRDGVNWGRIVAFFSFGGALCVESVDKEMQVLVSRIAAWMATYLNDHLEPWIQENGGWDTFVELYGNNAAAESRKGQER

Tests used:
PC3ML cells = experiment: Cell viability, ATP-LITE assay; assay type: cell-based, human
Method: The activity of the compounds against human cancer cell lines (PC3ML, H460, H1299, RS11846) were assessed by using the ATP-LITE assay (PerkinElmer). All cells were seeded in either F12 or RPMI1640 medium with 5 mM L-glutamine supplemented with 5% fetal bovine serum (Mediatech Inc.), penicillin and streptomycin (Omega). For maintenance, cells were cultured in 5% FBS. Cells plated into 96 well plates at varying initial densities depending on doubling time. H460 and H1299 plated at 2000 cells/well, A549 and PC3 at 3000 cells/well, and RS118456S at 10,000 cells/well. Compounds were diluted to final concentrations with 0.1% DMSO. Prior to dispensing compounds onto cells, fresh 5% media was placed into wells. Administration of compounds occurred 24 hours after seeding into the fresh media. Cell viability was evaluated using ATP-LITE reagent (PerkinElmer) after 72 hours of treatment. Data were normalized to the DMSO control-treated cells using Prism version 5.01 (Graphpad Software).

BCL-XL = BCL-XL (Homo sapiens (Human), UniProt Q07817); experiment: Isothermal titration calorimetry (ITC); assay type: binding
Method: Titrations were performed using a VP-ITC or ITC200 calorimeter from Microcal (Northampton, Mass.). BCL-XL was used at concentrations between 25 and 100 μM in 20 mM sodium phosphate buffer (pH 7.4) and 5-10% DMSO. Titrants were used at concentrations 10-15× of the protein in the same buffer. Titrations were carried out at 25° C. Data were analyzed using Microcal Origin software provided by the ITC manufacturer (Microcal, Northampton, Mass.).

GST-BCL-XL ΔTM protein = GST-BCL-XL ΔTM protein (Homo sapiens (Human), UniProt Q07817); experiment: Competitive fluorescence polarization assay (FITC-Bak BH3 peptide); assay type: binding
Method: For competitive binding assays, 100 nM GST-BCL-XL ΔTM protein was preincubated with the tested compound at varying concentrations in 47.5 μL PBS (pH=7.4) in 96-well black plates at room temperature for 10 min, then 2.5 μL of 100 nM FITC-labeled Bak BH3 peptide was added to produce a final volume of 50 μL. The wild-type and mutant Bak BH3 peptides were included in each assay plate as positive and negative controls, respectively.
IC50 was determined by fitting the experimental data to a sigmoidal dose-response nonlinear regression model (SigmaPlot 10.0.1, Systat Software, Inc., San Jose, Calif., USA). Data reported are mean of three independent experiments ±standard error (SE). […] Fluorescence polarization was measured after 10 min.

Cc1ccc(CC(=O)c2c(O)c(O)cc3c(O)c(-c4c(C)cc5c(C(=O)Cc6ccc(C)cc6)c(O)c(O)cc5c4O)c(C)cc23)cc1 [Compound XII, 1,1′-(1,1′,6,6′,7,7′-hexahydroxy-3,3′-dimethyl-2,2′-binaphthyl-5,5′-diyl)bis(2-p-tolylethanone)]
fold more potent than apogossypol, PC3ML EC50 (PC3ML cells): 2-5 fold | Kd (BCL-XL): 40 nM | times more potent than apogossypol, Kd ITC BCL-XL (BCL-XL): 40 times | EC50 (GST-BCL-XL ΔTM protein): 320 nM
